{
  "source": "patent US11505782B2",
  "about": "(priority 2018, dated 2022)",
  "system": "JAK1/JAK2",
  "type": "cell-based, human",
  "conditions": "48 h",
  "data": [
    {"substance": "IFNγ", "values": [
      {"measurement": "Average Fluorescence Intensity Density", "result": 0.06},
      {"measurement": "decrease in TurboFP635 fluorescence compared to control cells", "result": 17.8, "unit": "%"}
    ]}
  ]
}
